Biological target: Recombinant human DAO (Homo sapiens (Human), UniProt P19801)
Assay: Inhibition of human recombinant diamine oxidase
Format: biochemical
Details: putrescine 200 μM
Procedure: The inhibitory effects of all the compounds of Formula I were tested against human recombinant SSAO/VAP-1 using the coupled colorimetric method as described for monoamine oxidase, copper-containing amine oxidases and related enzymes (Holt A. and Palcic M., A peroxidise-coupled continuous absorbance plate-reader assay for flavin monoamine oxidases, copper-containing amine oxidases and related enzymes. Nat. Protoc. 2006, 1, 2498-2505). Briefly, a cloned cDNA template corresponding to residues 34-763 of human SSAO/VAP-1, and incorporating a mouse Ig kappa (κ) signal sequence, N-terminal Flag epitope tag and tobacco etch virus (TEV) cleavage site, was assembled in a mammalian expression vector (pLO-CMV) by Geneart AG. This vector containing human SSAO/VAP-1 residues was transfected into CHO-K1 glycosylation mutant cell line, Lec 8. A clone stably expressing human SSAO/VAP-1 was isolated and cultured in large scale. Active human SSAO/VAP-1 was purified and recovered using immunoaffinity chromatography. This was used as source for SSAO/VAP-1 activity. A high-throughput colorimetric assay was developed using either 96 or 384 well format.
Three human genes are found to encode for copper-containing amine oxidases. Diamine oxidase (DAO) is one of the enzymes produced by the AOC1 gene, named for its substrate preference for diamines. […]

Amino acid sequences for entries named in this document (tags omitted). Residues count along the entry.
UniProt P19801, 20-751: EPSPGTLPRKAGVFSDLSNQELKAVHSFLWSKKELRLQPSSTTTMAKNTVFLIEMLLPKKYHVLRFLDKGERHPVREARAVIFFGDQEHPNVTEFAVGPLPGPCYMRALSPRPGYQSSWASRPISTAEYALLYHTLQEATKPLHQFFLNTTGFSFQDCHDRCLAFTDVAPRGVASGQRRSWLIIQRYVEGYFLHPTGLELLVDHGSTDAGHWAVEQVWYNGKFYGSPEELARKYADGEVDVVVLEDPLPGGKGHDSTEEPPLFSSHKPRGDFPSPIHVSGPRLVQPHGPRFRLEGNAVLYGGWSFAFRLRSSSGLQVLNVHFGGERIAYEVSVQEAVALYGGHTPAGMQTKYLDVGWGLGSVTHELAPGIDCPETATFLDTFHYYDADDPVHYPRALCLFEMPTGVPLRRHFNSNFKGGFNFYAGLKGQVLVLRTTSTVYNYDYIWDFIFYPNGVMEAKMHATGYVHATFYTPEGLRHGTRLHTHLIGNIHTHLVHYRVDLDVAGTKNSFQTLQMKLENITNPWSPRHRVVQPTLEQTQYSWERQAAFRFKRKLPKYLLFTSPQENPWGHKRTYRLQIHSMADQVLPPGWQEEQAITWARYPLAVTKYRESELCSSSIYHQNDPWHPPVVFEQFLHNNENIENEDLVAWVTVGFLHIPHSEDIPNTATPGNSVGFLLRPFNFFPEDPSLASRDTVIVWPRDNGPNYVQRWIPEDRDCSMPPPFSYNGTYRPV

## CC(C)(C)NC(=O)c1ccc(OC/C(=C\F)CN)cc1 [Compound 1, (Z)-4-(2-(Aminomethyl)-3-fluoroallyloxy)-N-tert-butylbenzamide]
  IC50: < 1000 nM

— patent US9302986B2, “Substituted 3-haloallylamine inhibitors of ASSAO and uses thereof” (Boehringer Ingelheim International GmbH, priority 2012, dated 2016)
